Source: publication PMC5421360 (Peptides, 2017)
≈ marks a conversion by molar mass, not a printed value.

Protein sequences, listed by entry. Tags and fused reporters are not part of them. Residues count along the entry.
UniProt P25101, 21-427: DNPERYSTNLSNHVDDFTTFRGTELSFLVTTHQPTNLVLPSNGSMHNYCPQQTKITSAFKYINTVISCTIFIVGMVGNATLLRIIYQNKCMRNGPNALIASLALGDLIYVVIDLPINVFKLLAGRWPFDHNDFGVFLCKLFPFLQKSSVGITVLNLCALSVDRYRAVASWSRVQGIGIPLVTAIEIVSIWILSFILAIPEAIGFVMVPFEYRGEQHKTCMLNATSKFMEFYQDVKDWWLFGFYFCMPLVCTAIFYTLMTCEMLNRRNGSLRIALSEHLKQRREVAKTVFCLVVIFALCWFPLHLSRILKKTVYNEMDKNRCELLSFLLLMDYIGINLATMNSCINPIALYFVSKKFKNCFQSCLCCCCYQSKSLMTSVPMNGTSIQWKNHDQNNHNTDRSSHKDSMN

Key:
ETAR [1] = target: T1, ETAR (Homo sapiens, UniProt P25101); assay: 125I-ET-1 radioreceptor binding to NCI-H838 cells
NCI-H727 cells = assay: MTT proliferation assay, NCI-H727 cells; assay type: cell-based; conditions: Homo sapiens, NCI-H727, 48 h, read-out: IC50, proliferation
ETAR [2] = target: T1, ETAR; assay: 125I-ET-1 radioreceptor binding to NCI-H1975 cells

Work on `COc1nc(C)cnc1NS(=O)(=O)c1cccnc1-c1ccc(-c2nnco2)cc1` [ZD4054, zibotentan] yielded an IC50 (ETAR [1]) of 0.5 ± 0.1 nM, an IC50 (NCI-H727 cells) of 30 µg/mL (≈ 70.7 µM) and an IC50 (ETAR [2]) of 0.7 ± 0.2 nM.
